Consider one compound from US8658639B2, “N-substituted-cyclic amino derivative” (Dainippon Sumitomo Pharma Co., Ltd, priority 2009, dated 2014).

By UniProt entry, the sequences of proteins in these tests, tags left out. Residues count along the entry.
UniProt P00797, 67-406 limits assumed: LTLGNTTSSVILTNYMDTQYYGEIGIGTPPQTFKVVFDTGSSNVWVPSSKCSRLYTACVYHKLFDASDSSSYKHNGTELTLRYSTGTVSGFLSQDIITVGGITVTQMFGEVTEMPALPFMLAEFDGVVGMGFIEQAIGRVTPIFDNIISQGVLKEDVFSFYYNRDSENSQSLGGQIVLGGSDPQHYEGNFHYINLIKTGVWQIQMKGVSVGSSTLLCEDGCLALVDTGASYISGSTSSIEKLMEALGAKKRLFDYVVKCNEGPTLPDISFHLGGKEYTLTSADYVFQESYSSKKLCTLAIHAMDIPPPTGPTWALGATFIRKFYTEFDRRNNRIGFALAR

The assay addresses Recombinant human renin (Homo sapiens, UniProt P00797). The experiment in a line: In vitro renin inhibitory activity assay. The settings on record: read-out: Human renin inhibitory activity IC50; recombinant human renin 4.2 ng/mL, substrate 4 μM, 37° C., one hour, pH 7.4. As to the method:
Experiment 1: In Vitro Renin Inhibitory Activity Assay
Recombinant human renin (4.2 ng/mL) was reacted in 0.1M HEPES buffer (pH 7.4) containing 0.1M NaCl, 1 mM EDTA and 0.1 mg/mL BSA together with a substrate and a test compound at 37° C. for one hour. As the substrate, Arg-Glu(EDANS)-Ile-His-Pro-Phe-His-Leu-Val-Ile-His-Thr-Lys(DABCYL)-Arg (SEQ ID NO: 1) or DABCYL-γ-Abu-Ile-His-Pro-Phe-His-Leu-Val-Ile-His-Thr-EDANS (SEQ ID NO: 2) was added in such an amount so that the final concentration thereof became 4 μM. The elevated fluorescence intensity at the exciting wavelength 340 nm and the fluorescence wavelength 500 nm was measured by a fluorescence plate reader. The concentration of a test compound to be needed to inhibit an enzyme activity in the presence of a test compound in several concentrations by 50% was calculated as an IC50 value. The test compounds were diluted in DMSO and used in this Experiment.

For `CCC(=O)NCCN1C(=O)C2(CCC2)Oc2cc(C)c(C(=O)N(C(C)C)[C@@H]3CCCN(C(=O)OC(C)OC(=O)OC)C3)cc21` (stereo partly shown), the IC50 was found to be 58 nM.

Broadly, the IC50 is the concentration at which inhibition is half-maximal.
